Source: PubChem BioAssay AID488837 (National Center for Advancing Translational Sciences (NCATS), 2010)
“And” between values parts separate entries of the source, which are not always exact repeats. Identical values can stand only once. The entries are a selection whose mix differs from that of the whole data set. The source made the active and inactive calls. The call rests on the fitted dose curve; in most records, active means well fitted inhibition curve with a large enough effect; inconclusive means small, poorly fitted or top-dose-only effect, or effect the other way; inactive means flat fitted curve, though single readings scatter.

Amino acid sequences for entries named in this document (tags omitted). A change or cut given only in a name is not applied to a line headed by its entry.
UniProt O00167: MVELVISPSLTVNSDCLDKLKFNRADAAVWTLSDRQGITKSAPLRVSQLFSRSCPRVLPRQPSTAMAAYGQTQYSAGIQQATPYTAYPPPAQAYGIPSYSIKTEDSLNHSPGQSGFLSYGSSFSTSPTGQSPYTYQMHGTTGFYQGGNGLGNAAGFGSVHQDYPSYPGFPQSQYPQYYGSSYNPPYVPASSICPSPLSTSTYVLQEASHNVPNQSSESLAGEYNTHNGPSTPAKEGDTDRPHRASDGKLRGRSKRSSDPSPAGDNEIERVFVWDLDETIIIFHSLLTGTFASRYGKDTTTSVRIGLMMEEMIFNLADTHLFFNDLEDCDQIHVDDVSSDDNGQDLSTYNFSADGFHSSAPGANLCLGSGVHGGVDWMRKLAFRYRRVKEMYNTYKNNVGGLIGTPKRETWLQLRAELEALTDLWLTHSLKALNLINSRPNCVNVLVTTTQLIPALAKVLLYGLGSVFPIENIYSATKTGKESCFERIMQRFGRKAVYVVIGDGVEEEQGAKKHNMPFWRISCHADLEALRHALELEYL

The compounds below were run against Protein phosphatase EYA2 (Homo sapiens) (UniProt O00167) (assay: qHTS Assay for Inhibitors of the Phosphatase Activity of Eya2). Details: recombinant Eya2, OMFP fluorescence dephosphorylation (OMFP is methylfluorescein phosphate); at 76.9 µM (top of the series) unless noted.
Text: The Eya family of proteins are essential co-activators of the Six1 transcription factor. Six1 is a developmental gene that is abnormally re-expressed in a large percentage of breast cancers. This over-expression plays a causal role in the initiation and metastatic development of breast cancers. The Eya family of proteins was also found to contain a unique HAD phosphatase domain with protein tyrosine phosphatase activity which can potentially play a role in Six1-mediated breast tumorigenesis. […] We have developed and optimized a 1536 well fluorescence-based HTS assay targeting the phosphatase activity of Eya2. Inhibitors found against Eya2 could serve as potential therapeutic tools to inhibit Six1-mediated breast tumorigenesis and to increase the efficiency of radiation and certain chemo therapy. These inhibitors could also be used as chemical probes to study the function of Eya2's phosphatase activity and its role in Six1-mediated breast tumorigenesis.
The Eya2 enzyme was kindly provided by the laboratory of Dr. Rui Zhao. The 3-O-methyl-fluorescein phosphate (OMFP) substrate and all buffer reagents were purchased from Sigma Aldrich. qHTS Assay Setup: 1. Buffer- 50 mM HEPES pH 7.5, 50 mM NaCl, 5 uM MgCl2, 0.05% BSA, 1 mM DTT. 2. OMFP Stock- 10 mM solution prepared in 100% DMSO and stored in single use aliquots at -20C. Assay Procedure- 1. Dispense 1.5 ul per well of Eya2 at 0.2 uM in black medium binding 1536 well Greiner plate 2. Transfer 23 nl of compound and control compound (EGTA) to plate 3. Incubate at ambient for 10 minutes 4. Dispense 1.5 ul per well of OMFP at 50 uM 5. Incubate at ambient for 10 minutes 6. Read on ViewLux using Excitation = 485 nm, Emission = 525 nm
On the % scale 0 is the no-effect control and ±100 the full control effect.

SMILES	activity, negative = inhibition
O=C(OC1CN2CCC1CC2)C12CC3CC(CC(C3)C1)C2 (centres undefined)	inactive: -0.661%
Cc1cc(=O)[nH]c(N[N+](=O)[O-])n1	inactive: 5.71%
Cc1c2c(nc3ccccc13)SC(C(Cl)Cl)C2 (centres undefined)	inactive: -9.27%
COc1ccc2nc(NP(=O)(c3ccccc3)c3ccccc3)sc2c1	inactive: 8.96%
COc1cc(I)ccc1[As](=O)(O)O	inactive: 14.6%
COc1ccc(N/C(=N/P(=O)(N2CCOCC2)N2CCOCC2)N2CCOCC2)cc1	inactive: 10.9%
C[As](=O)(O)c1cccc(C(=O)O)c1	inactive: 3.1%
COc1cc(C(=O)NCC2(N3CCOCC3)CCCCC2)ccc1OCC(C)C	inactive: -4.28%
Cc1ccc2nc3c(c(C)c2c1)CC(C(Cl)Cl)S3 (centres undefined)	inactive: -3.4%
Cc1ccc(OP(=O)(Nc2ccc([N+](=O)[O-])cn2)Oc2ccc(C)cc2)cc1	inactive: 11.7%
CC(C)c1ccc(OP(=O)(Nc2ccccn2)Oc2ccccc2F)cc1 (centres undefined)	inactive: -13.6%
ClCCSc1nnc(-c2cccnc2)o1	inactive: -1.53%
CCN(CC)C(=S)SC(NC=O)C(Cl)(Cl)Cl (centres undefined)	inactive: 3.55%
CC(C)NC(=O)NP(=O)(Oc1ccccc1)Oc1ccccc1	inactive: -1.03%
O=[N+]([O-])c1cc([N+](=O)[O-])c(-c2ccn[nH]2)s1	inactive: 4.77%
CCOC(=O)Nc1ccc([As](=O)(O)O)c(O)c1	inactive: -22.5%
CCCCOc1ccc(C(=O)NCC2(N3CCCCC3)CCCCC2)cc1OC	inactive: -0.293%
Cc1cc(SC(NC(=O)c2ccccc2)C(Cl)(Cl)Cl)nc(C(C)C)n1 (centres undefined)	inactive: -12%
CCOC(=O)Nc1cccc([As](=O)(O)O)c1	inactive: -0.644%
O=[N+]([O-])c1ccc(Nc2ccc(Oc3ccc([N+](=O)[O-])cc3[N+](=O)[O-])cc2)c([N+](=O)[O-])c1	inactive: -15.4%
Cc1cc(SC(NC=O)C(Cl)(Cl)Cl)ncn1 (centres undefined)	inactive: 5.39%
O=P(Nc1ccccn1)(c1cccc2ccccc12)c1cccc2ccccc12	inactive: -2.31%

SMILES	activity, negative = inhibition
COP1(=S)c2c(C)nn(CCC#N)c2N=C(c2ccc(F)cc2)N1C (centres undefined)	inactive: -3.41%
O=C(COc1ccccc1)OC1CN2CCC1CC2 (centres undefined)	inactive: 21.8%
O=C(Nc1ccncc1[N+](=O)[O-])c1ccc([N+](=O)[O-])cc1[N+](=O)[O-]	inactive: 13.9%
CCOC(=O)c1ccc(NC(=O)C(C)(CCl)SC)cc1 (centres undefined)	inactive: -0.135%
O=C(OC1CN2CCC1CC2)c1cccc([N+](=O)[O-])c1 (centres undefined)	inactive: 3.32%
CCC(C)N(CC(C)C)C(=S)SC(NC(C)=O)C(Cl)(Cl)Cl (centres undefined)	inactive: -9.54%
CN(CCCl)Cc1cc(Cl)c(NC2=NCCN2)c(Cl)c1	inactive: 1.87%
CCOP(=O)(Nc1ccc(C)cn1)OCC	inactive: 7.94%
CCC1=CC2Cc3nc4ccc(Cl)cc4c(N)c3C(C1)C2 (centres undefined)	inactive: 6.14%
O=P1(Nc2ccccn2)COc2ccccc2OC1	inactive: 1.42%
CCOP(=O)(NC(=NC(C)c1ccccc1)NC(C)c1ccccc1)OCC (centres undefined)	inactive: 16.1%
Clc1n[nH]nc1-c1nn[nH][15n]1	inactive: 11.7%
CC(C)(C)C(=O)NC(Sc1ncccn1)C(Cl)(Cl)Cl (centres undefined)	inactive: 5.3%
COc1ccccc1CNC(=O)COC(=O)C(O)(c1ccccc1)c1ccccc1	inactive: -14.6%
O=[As](O)(c1ccccc1Br)c1ccccc1Br	inactive: 0.565%
CN(C(=O)Cc1ccc(Cl)c(Cl)c1)[C@@H]1CCCC[C@H]1N1CCCC1	inactive: -5.37%
CC(C)/C=N\N=C(\N)N[N+](=O)[O-]	inactive: 0.231%
Cc1nn(-c2ccccc2)c2c1P(=O)(N1CCOCC1)N(C)C(c1ccccc1)=N2 (centres undefined)	inactive: -31.1%
Cc1ccc(C(=O)OC2CN3CCC2CC3)cc1 (centres undefined)	inactive: -6.69%
CC1CCC(C(C)C)C(OP(=O)(Nc2ccccn2)c2ccccc2)C1 (centres undefined)	inactive: -0.711%
O=C(/C=C/c1ccccc1)OC1CN2CCC1CC2 (centres undefined)	inactive: -1.86%
CN(C)C1(CNC(=O)c2ccc(S(C)(=O)=O)cc2)CCCCC1	inactive: -3.74%

SMILES	activity, negative = inhibition
O=P1(Nc2ncccn2)COc2ccccc2OC1	inactive: 30.4%
NS(=O)(=O)c1cccc(NC(=O)COC(=O)C(O)(c2ccccc2)c2ccccc2)c1	inactive: -1.85%
O=P1(Nc2ccc(Br)cn2)COc2ccccc2OC1	inactive: 7.39%
Cc1ccc(OCC(=O)OC2CN3CCC2CC3)cc1 (centres undefined)	inactive: -5.6%
O=[As](O)(c1cccs1)c1cccs1	inactive: 2.54%
Nc1cccc([As](=O)(O)c2ccccc2)c1	inactive: -0.0303%
CS(=O)(=O)c1cc([N+](=O)[O-])c2no[n+]([O-])c2c1	inactive: 8.86%
CCOP1(=S)c2c(C)nn(CCC#N)c2N=C(c2ccccc2F)N1C (centres undefined)	inactive: 12.8%
O=P(Nc1nccs1)(c1ccccc1)c1nc2ccccc2s1 (centres undefined)	inactive: -1.18%
O=P(Nc1nccs1)(Oc1ccccc1)Oc1ccccc1	inactive: 7.38%
O=C(O)COc1ccc([As](=O)(O)O)cc1[N+](=O)[O-]	inactive: -26.3%
Nc1ccccc1[As](=O)(O)c1ccccc1	inactive: -27%
NC(=O)Nc1ccc([As](=O)(O)O)cc1	inactive: 4.76%
O=[N+]([O-])c1ccc2c(c1)nnn2O	inactive: 11.5%
N#CCCN(C(=O)COC(=O)C(O)(c1ccccc1)c1ccccc1)c1ccc(F)cc1	inactive: 20.2%
CN(C(=O)Cc1ccccc1)[C@@H]1CC[C@]2(CCCO2)C[C@H]1N1CCCC1	inactive: 8.09% and inactive: -7.42%
CCOP1(=S)c2c(C)nn(CCC#N)c2N=C(c2ccc(F)cc2)N1C (centres undefined)	inactive: -6.99% [at 15.4 µM]
COc1cc(C(=O)NCC2(N3CCOCC3)CCCCC2)cc(Cl)c1OC(C)C	inactive: 3.64%
O=[As](O)(O)c1cccnc1	inactive: -15.6%
CS(=O)(=O)c1ccc(Cl)c(NC(=O)COC(=O)C(O)(c2ccccc2)c2ccccc2)c1	inactive: -2.12%
